HCMV UL50-53 inh: disrupts HCMV UL50-UL53 complex binding | HTRF UL50-UL53 interaction, normalized percent inhibition | inhibition, % (test concentration not listed) | 0.15% of 190,000 active; in the data active = inhibition above about 27%, passing the limit was not always enough
GIV Gai3 FP: blocks GIV peptide binding to rat Galpha-i3. P08753. Galpha-i3/FITC-GIV peptide fluorescence polarization, 90 min; stronger effect = lower value; scaled: aluminum fluoride 0%, vehicle 100%. percent of control (FP), % (test concentration not listed). 0.42% of 210,000 active. AID 1224905;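 active = replicate mean at 85% of control or lower, very high polarization wells dropped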;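 also: wells of about 15 µL received 100 nL stock; the first replicate is given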
GIV Gai FP conf: confirmation of inhibitors of GIV binding to rat Galpha-i3 | shares compounds with GIV Gai3 FP | 38% of 580 active | fluorescence polarization, mP at 100 µM | FITC-GIV peptide binding to Galphai3, fluorescence polarization; stronger effect = lower value;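 active = inhibition score of 15 or more, meaning 100 minus mean polarization as percent of control over three replicates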
GIV Gai AS conf: confirmation of inhibitors of GIV binding to human Galpha-i3 | shares compounds with GIV Gai3 FP | AlphaScreen Galphai3-GIV binding, purified proteins, 90 min; stronger effect = lower value | AlphaScreen counts at 100 µM | 39% of 580 active;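 active = inhibition score at or above a set limit, where the score is 100 minus the three-replicate mean percent of control signal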
Hits are given with their value; ! = repeats disagree. Most compounds without a hit are left out; they make up all but 0.46% or so of the library.

For COc1ccc(Nc2c3c(nc4ccc(NC(=O)C5CC5)cc24)CCCC3)cc1OC the results were GIV Gai3 FP inactive.
Screening CC(CCc1ccccc1)NC(=O)CCc1cn(Cc2ccc(F)cc2)c2ccccc12 (stereo not given) returned GIV Gai3 FP inactive.
For O=C(CC1SC(=O)NC1=O)Nc1ccc(O)cc1 (stereo not given) the results were HCMV UL50-53 inh inactive and GIV Gai3 FP inactive.
`O=C(CC1SC(=O)NC1=O)Nc1cccc(NC(=O)CC2SC(=O)NC2=O)c1` (stereo not given) gave HCMV UL50-53 inh inactive, GIV Gai3 FP 76, GIV Gai FP conf 62 and GIV Gai AS conf 9767.
`Cc1cc2c(cc1C(=O)NCc1ccc3c(c1)OCCCO3)OCCCO2` gave GIV Gai3 FP inactive.
Screening CCC1(C)Cc2c(C#N)c(N)n(-c3ccccc3)c(=O)c2CO1 (stereo not given) returned HCMV UL50-53 inh inactive.
For CC1(C)C=C2C(=NN(c3ccccc3)C(N)=C2C#N)CO1 the results were HCMV UL50-53 inh inactive, GIV Gai3 FP 83, GIV Gai FP conf inactive and GIV Gai AS conf inactive.
`Cn1c(=O)c2[nH]c(-c3ccccc3)nc2n(C)c1=O` gave HCMV UL50-53 inh inactive and GIV Gai3 FP inactive.
For CN(C)c1ccc(-c2nc3c([nH]2)c(=O)n(C)c(=O)n3C)cc1 the results were GIV Gai3 FP 75, GIV Gai FP conf inactive and GIV Gai AS conf inactive.
For Cc1c(Cl)cccc1NC(=O)Nc1cccc(OCc2cc(=O)n3ccccc3n2)c1 the results were GIV Gai3 FP inactive.
`Cc1ccn2c(=O)cc(COc3ccc(NC(=O)Nc4ccc(Cl)cc4)cc3)nc2c1` gave GIV Gai3 FP 82, GIV Gai FP conf inactive and GIV Gai AS conf inactive.
Cc1ccn2c(=O)cc(COc3cccc(NC(=O)Nc4cccc(Cl)c4C)c3)nc2c1 was read as GIV Gai3 FP inactive, GIV Gai FP conf inactive and GIV Gai AS conf inactive.
Screening Cc1ccn2c(=O)cc(COc3ccc(NC(=O)Nc4cccc(Cl)c4)cc3)nc2c1 returned GIV Gai3 FP inactive.
COc1cccc(CNC(=O)CC2C(=O)Nc3c2c(=O)n(C)c(=O)n3Cc2ccccc2)c1 (stereo not given) was read as HCMV UL50-53 inh inactive.
`Cn1c(=O)c(-c2noc(CCC(=O)Nc3ccc(Cl)cc3)n2)nn(-c2ccc(F)cc2)c1=O` gave HCMV UL50-53 inh inactive and GIV Gai3 FP inactive.
Screening Cc1ccc(-n2nc3c(n2)/C(=N/O)CCC3)cc1 returned HCMV UL50-53 inh 47, GIV Gai3 FP 79, GIV Gai FP conf inactive and GIV Gai AS conf 23948.
Screening COc1ccc(-c2nc3c(n2O)CCC/C3=N\O)cc1 returned HCMV UL50-53 inh inactive and GIV Gai3 FP inactive.
`CC1=NN(c2ccc3c(S(=O)(=O)O)cc(S(=O)(=O)O)cc3c2)C(=O)C1` gave GIV Gai3 FP 51, GIV Gai FP conf 43 and GIV Gai AS conf 4060.
`CC1=NN(c2ccc(N)cc2)C(=O)C1` gave HCMV UL50-53 inh inactive and GIV Gai3 FP inactive.
`COC(=O)c1c(C(C)(C)C)oc2c1cc(NS(=O)(=O)c1ccc(OC)cc1)c1ccccc12` gave GIV Gai3 FP inactive.
For Cc1cc2c(NC(=O)CC(C)(C)CC(=O)O)cccc2nn1 the results were HCMV UL50-53 inh inactive and GIV Gai3 FP inactive.
`Cc1cc2c(NC(=O)COCC(=O)O)cccc2nn1` gave HCMV UL50-53 inh inactive, GIV Gai3 FP 73, GIV Gai FP conf 55 and GIV Gai AS conf 16084.
CCOC(=O)[C@@H]1Nc2ccc(C(=O)O)cc2[C@@H]2C=CC[C@H]12 was read as GIV Gai3 FP 63, GIV Gai FP conf 50 and GIV Gai AS conf 2184.
Screening CCOC(=O)[C@@H]1Nc2ccc(Br)cc2[C@@H]2C=CC[C@H]12 returned HCMV UL50-53 inh inactive and GIV Gai3 FP inactive.
For O=C1C(=Cc2cccn2-c2ccc(O)cc2)C(=O)c2ccccc21 the results were GIV Gai3 FP 72, GIV Gai FP conf 6.1 and GIV Gai AS conf 19282.
Screening O=C(O)c1cccc(-n2cccc2C=C2C(=O)c3ccccc3C2=O)c1 returned GIV Gai3 FP inactive.
Screening N/N=C1\C(=N/O)CCc2nonc21 returned HCMV UL50-53 inh inactive and GIV Gai3 FP inactive.
`CCOc1ccc(C2C3CN(CC)CC=C3C(C#N)=C(N)C2(C#N)C#N)cc1` (stereo not given) gave GIV Gai3 FP inactive.
Screening CCCN1CCC2(CC1)C1CN(CCC)CC=C1C(C#N)=C(N)C2(C#N)C#N (stereo not given) returned HCMV UL50-53 inh inactive, GIV Gai3 FP inactive, GIV Gai FP conf inactive and GIV Gai AS conf inactive.
`CCc1onc(C)c1C1CCCN1C(=O)C(C)(C)C` (stereo not given) gave GIV Gai3 FP inactive.
Screening Oc1ccccc1C1=Nc2ccccc2N=C(c2ccc(Cl)cc2)C1 returned HCMV UL50-53 inh inactive, GIV Gai3 FP 72!, GIV Gai FP conf inactive and GIV Gai AS conf inactive.
Oc1ccc(Cl)cc1C1=Nc2ccccc2N=C(c2ccc(Cl)cc2)C1 was read as GIV Gai3 FP inactive.
Screening CC(C)C(C(=O)NN1C(=O)/C(=C/c2ccccn2)N=C1c1ccccc1)c1ccc(Cl)cc1 (stereo not given) returned HCMV UL50-53 inh inactive.
`Cc1cc2nc3c4cccc5cccc(c(=O)n3c2cc1C)c54` gave GIV Gai3 FP inactive.
For Nc1nc2c3cccc4cccc(c(=O)n2n1)c43 the results were HCMV UL50-53 inh inactive, GIV Gai3 FP 80, GIV Gai FP conf inactive and GIV Gai AS conf inactive.
COc1ccc(OCCNC(=O)c2ccc3snnc3c2)cc1 was read as HCMV UL50-53 inh inactive and GIV Gai3 FP inactive.
Screening COc1cccc(C2C3=C(CCCC3=O)OC3=C2C(=O)CCC3)c1OC returned HCMV UL50-53 inh inactive and GIV Gai3 FP inactive.
For Cc1nc(N=Nc2cc(S(=O)(=O)O)c3cc([N+](=O)[O-])cc(S(=O)(=O)O)c3c2)c(COP(=O)(O)O)c(C=O)c1O the results were HCMV UL50-53 inh inactive, GIV Gai3 FP 17, GIV Gai FP conf 53 and GIV Gai AS conf 3265.
Screening Cc1ccc(C)c(N2CCN(c3c4c(nc5nc(C)nn35)CCC4)CC2)c1 returned HCMV UL50-53 inh inactive and GIV Gai3 FP inactive.
For COc1ccc(C(=O)Oc2ccc(C=C3C(=O)NC(=O)NC3=O)cc2Cl)cc1 the results were HCMV UL50-53 inh 76, GIV Gai3 FP 76, GIV Gai FP conf inactive and GIV Gai AS conf 24807.
For COc1cc(C=C2C(=O)NC(=O)NC2=O)ccc1OC(=O)c1cc(F)c(F)cc1Cl the results were HCMV UL50-53 inh inactive and GIV Gai3 FP inactive.
Screening CCC(C(=O)Nc1ccc(F)cc1F)n1c(C(=O)OC)cc2ccsc21 (stereo not given) returned HCMV UL50-53 inh inactive and GIV Gai3 FP inactive.
For c1ccc(SCc2cn3cccnc3n2)cc1 the results were HCMV UL50-53 inh inactive.
Screening O=C(c1sc2ccccc2c1Cl)N1CCc2ccccc21 returned HCMV UL50-53 inh inactive.
`Nc1c(C(=O)N2CCc3ccccc32)sc2nc(C(F)(F)F)c3c(c12)CCCC3` gave GIV Gai3 FP inactive, GIV Gai FP conf inactive and GIV Gai AS conf inactive.
Screening O=C(Cc1ccc(NC2=NC3CS(=O)(=O)CC3S2)cc1)Nc1ccc(F)c(Cl)c1 (stereo not given) returned HCMV UL50-53 inh inactive and GIV Gai3 FP inactive.

Source: PubChem
